Reference: patent EP1717234A1, “Phenoxypropylpiperidines and -pyrrolidines and their use as histamine H3-receptor ligands” (BIOPROJET, priority 2005, dated 2006)

Amino acid sequences for entries named in this document (tags omitted).
UniProt P10635, whole entry: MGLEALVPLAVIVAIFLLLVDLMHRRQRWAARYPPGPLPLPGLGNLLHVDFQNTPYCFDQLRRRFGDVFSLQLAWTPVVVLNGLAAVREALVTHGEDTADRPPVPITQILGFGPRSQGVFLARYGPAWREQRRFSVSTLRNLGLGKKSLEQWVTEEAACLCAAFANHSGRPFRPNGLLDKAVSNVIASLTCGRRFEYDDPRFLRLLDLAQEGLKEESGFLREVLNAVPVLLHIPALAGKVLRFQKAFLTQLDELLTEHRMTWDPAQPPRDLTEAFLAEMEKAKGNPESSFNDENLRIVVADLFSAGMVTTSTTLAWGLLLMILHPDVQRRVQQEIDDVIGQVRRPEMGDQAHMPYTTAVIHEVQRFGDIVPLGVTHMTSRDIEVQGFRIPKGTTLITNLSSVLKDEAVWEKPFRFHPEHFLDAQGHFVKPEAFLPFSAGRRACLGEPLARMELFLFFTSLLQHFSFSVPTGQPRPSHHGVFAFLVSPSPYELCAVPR
UniProt Q9Y5N1, whole entry: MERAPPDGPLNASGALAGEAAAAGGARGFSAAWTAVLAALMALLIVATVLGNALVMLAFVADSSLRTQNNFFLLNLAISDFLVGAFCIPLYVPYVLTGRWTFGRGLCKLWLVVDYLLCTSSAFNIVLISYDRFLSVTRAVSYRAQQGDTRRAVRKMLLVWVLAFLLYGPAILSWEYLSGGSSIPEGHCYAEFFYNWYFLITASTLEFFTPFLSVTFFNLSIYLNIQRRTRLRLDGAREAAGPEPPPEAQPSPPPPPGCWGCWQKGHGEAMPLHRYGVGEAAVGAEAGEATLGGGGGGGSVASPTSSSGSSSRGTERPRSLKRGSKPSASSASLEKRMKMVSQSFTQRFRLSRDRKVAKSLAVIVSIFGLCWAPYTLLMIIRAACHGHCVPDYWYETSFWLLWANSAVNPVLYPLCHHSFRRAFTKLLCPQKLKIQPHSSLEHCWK
UniProt P08684, whole entry: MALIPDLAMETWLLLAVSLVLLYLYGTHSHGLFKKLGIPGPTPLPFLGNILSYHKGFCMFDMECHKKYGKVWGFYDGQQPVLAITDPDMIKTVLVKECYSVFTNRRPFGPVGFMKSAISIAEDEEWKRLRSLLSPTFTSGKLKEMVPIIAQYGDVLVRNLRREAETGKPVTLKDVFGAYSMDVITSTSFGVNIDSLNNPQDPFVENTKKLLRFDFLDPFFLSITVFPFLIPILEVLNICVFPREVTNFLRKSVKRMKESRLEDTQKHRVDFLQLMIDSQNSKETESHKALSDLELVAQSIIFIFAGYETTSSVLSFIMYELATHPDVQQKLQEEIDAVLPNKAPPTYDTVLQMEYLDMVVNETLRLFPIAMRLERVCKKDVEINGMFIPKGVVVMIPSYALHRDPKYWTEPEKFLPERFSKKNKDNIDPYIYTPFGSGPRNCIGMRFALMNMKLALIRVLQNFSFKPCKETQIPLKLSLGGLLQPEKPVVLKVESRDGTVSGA

What was measured:
[1] = molecular target: CYP2D6 (Homo sapiens, UniProt P10635); assay: Cytochrome inhibition, fluorometric microtiter plate assay (substrate AMMC); format: biochemical; conditions: read-out: CYP2D6 (IC50, concentrations for 50% inhibition); comparative compounds of WO 00/06254
[2] = molecular target: human histamine H3 receptors (Homo sapiens, UniProt Q9Y5N1); assay: H3 binding ([125I]iodoproxyfan, membranes); conditions: comparative compounds of WO 00/06254
[3] = molecular target: CYP3A4 (Homo sapiens, UniProt P08684); assay: Cytochrome inhibition, fluorometric microtiter plate assay (substrate BFC); format: biochemical; conditions: read-out: CYP3A4 (IC50, concentrations for 50% inhibition); comparative compounds of WO 00/06254

SMILES	IC50 [1] [µM]	Ki [2] [µM]	IC50 [3] [µM]
CCCC(=O)c1ccc(OCCCN2CCCCC2)cc1	1	0.0045	1
CC(C)c1ccc(OCCCN2CCCCC2)cc1	1	0.014	> 1
